Experimental data published in EP4714469A1, “PHARMACEUTICAL COMPOSITION COMPRISING ANTIBODY-DRUG CONJUGATE” (CSPC Megalith Biopharmaceutical Co., Ltd., priority 2023, dated 2024).
Like-named read-outs stand apart in the source and are kept apart here.

Key:
SK-BR-3 cells = assay: In-vitro proliferation inhibition, resazurin (procedure 1); assay type: cell-based, human; settings: 3 days
Procedure: The object of this assay was to detect the inhibitory activity of the antibody-drug conjugate of the present invention on the in-vitro proliferation of SK-BR-3 (ATCC/HTB-30) tumor cells, human colorectal cancer cells DiFi, human lung cancer gefitinib resistant cell PC9-GR, or human lung cancer mutant cell PC-9 (Dell9-T790M-C797S). The cells were treated in vitro with compounds of different concentrations. After culture, resazurin was added to read the fluorescence values of ex550nm/em610nm, and the data were fitted with four parameters to obtain the IC50 values, thereby calculating the biological activities of the compound.
• 3.1 Culture medium: DMEM, 10% FBS, 1×bispecific antibody • 3.2 Cell culturing: Frozen SK-BR-3/MDA-MB-468 cells were taken out of liquid nitrogen and revived in a 75cm^2 culture vessel for culturing. […]
• 3.8.1 After incubation, 20µL of 0.03% resazurin (1×PBS diluted) was added to each well and gently shaken for 10-15 seconds. • 3.8.2 After incubating at 37°C for 3-4 hours, the plate was read using a microplate reader with the following parameters: • Exciting light: 550nm • Emitting light: 610nm • Integration time: 50 • Shaking: 15 seconds, vortex • Reading: top reading • Number of reading/well: 1 • Gain: optimization setting (between 35 and 42) […]

[1] = system: SK-BR-3 and HEK293-Luc cells; assay: Assay 7: in vitro bystander effect, positive cell co-culture; assay type: cell-based; settings: 4 days
Procedure: (§1) The released small molecule payloads could cause apoptosis of co-cultured negative cells in the periphery, known as the bystander effect. In this study, reporter gene cells HEK293-Luc were co-cultured with positive cell line SK-BR-3 and negative control cell MDA-MB-468 for four days. The effect of released small molecule payloads on the growth of HEK293-Luc was determined by adding a chemiluminescent substrate.
(§2) • 3.3.1 When the cell confluence reached 90%, SK-BR-3, MDA-MB-468, and HEK293-Luc cells were digested with trypsin and collected separately, and the cells were resuspended in their respective media. • 3.3.2 The resuspended target cells were gently pipetted several times to form a single-cell suspension. […] Fifty microliters per well were added to a 96-well transparent flat-bottom culture plate. […] Fifty microliters per well were added to the cell-inoculated 96-well transparent flat-bottom culture plate and placed in a 37°C CO2 incubator for 4 days. • 3.3.5 After incubation, the plate was removed from the incubator, and the temperature was allowed to equilibrate to room temperature. Bright-Glo™ Luciferase Assay System was added to the plate at 100µL per well, and chemiluminescence was read after 5-15 minutes in the dark. • 4. […] See Table 13 and Figure 17 for the test result. Table 13: Inhibition rate of the antibody-drug conjugates of the present invention on fluorescent cells

[2] = 0.5% BSA-PBS, 37°C
[3] = system: MDA-MB-468 and HEK293-Luc cells; assay: Assay 7: in vitro bystander effect, negative cell co-culture; assay type: cell-based; settings: 4 days
Procedure: as §1, §2

“DP001-DXD ADC (DAR=7.0): DP001 conjugated with commercially available Deruxtecan [reference compound]” gave an IC50 value (SK-BR-3 cells) of 7.2481 ng/mL, an Inhibition rate ([1]; SKBR3+HEK293-GLP1, 100 ng/ml) of 10.0% and an Inhibition rate ([1]; SKBR3+HEK293-GLP1, 500 ng/ml) of 16.4%. For the same substance, the Inhibition rate ([1]; SKBR3+HEK293-GLP1, 1000 ng/ml) was 17.1%, the “Dropping rate (%)” value ([2]; 0 h) was 0.02% and the “Dropping rate (%)” value ([2]; 120 h) was 0.16%. For the same substance, the “Dropping rate (%)” value ([2]; 168 h) was 0.14%, the “Dropping rate (%)” value ([2]; 336 h) was 0.41% and the “Dropping rate (%)” value ([2]; 504 h) was 3.90%. The “Dropping rate (%)” value ([2]; […]) was 0.16%, the Inhibition rate ([3]; MDA-MB-468+HEK293-GLP1, 100 ng/ml) was 3.4% and the Inhibition rate ([3]; MDA-MB-468+HEK293-GLP1, 500 ng/ml) was 2.6%. It also gave an Inhibition rate ([3]; MDA-MB-468+HEK293-GLP1, 1000 ng/ml) of 2.7%.
